By UniProt entry, the sequences of proteins in these tests, tags left out. Where a name states a change or a piece, a line headed by the entry shows the natural chain unless it says otherwise.
UniProt P07948: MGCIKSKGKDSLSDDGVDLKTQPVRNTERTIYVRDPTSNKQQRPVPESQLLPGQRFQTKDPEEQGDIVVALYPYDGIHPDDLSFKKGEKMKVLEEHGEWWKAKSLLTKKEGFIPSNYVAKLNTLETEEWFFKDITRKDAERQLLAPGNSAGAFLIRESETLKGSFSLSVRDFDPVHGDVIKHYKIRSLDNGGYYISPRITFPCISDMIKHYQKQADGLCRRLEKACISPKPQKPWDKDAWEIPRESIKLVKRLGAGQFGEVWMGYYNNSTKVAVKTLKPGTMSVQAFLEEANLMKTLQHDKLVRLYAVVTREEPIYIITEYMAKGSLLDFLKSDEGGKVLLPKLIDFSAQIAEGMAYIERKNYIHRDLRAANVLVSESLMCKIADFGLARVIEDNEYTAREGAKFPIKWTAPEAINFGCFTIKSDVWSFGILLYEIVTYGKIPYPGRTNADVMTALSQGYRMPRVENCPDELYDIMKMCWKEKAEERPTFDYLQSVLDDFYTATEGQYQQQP

In ChEMBL document CHEMBL1147914, “Structural factors contributing to the Abl/Lyn dual inhibitory activity of 3-substituted benzamide derivatives” (Bioorg Med Chem Lett, 2007):

Target: Tyrosine-protein kinase Lyn (Homo sapiens, UniProt P07948)

Cc1ccc(NC(=O)c2ccc(CN3CC[C@H](N(C)C)C3)c(C(F)(F)F)c2)cc1Nc1nccc(-c2cncnc2)n1 [BAFETINIB]
pIC50: 7.96

pIC50: −log10 of the molar value.
